Source: patent publication US20140171424A1, “HYPERTENSION AND HYPERURICEMIA” (ARDEA BIOSCIENCES, INC., priority 2011, published 2014)

How the values were obtained:
[1] = biological target: T1, OAT4 (Homo sapiens, UniProt Q9NSA0); assay: OAT4 urate (14C-uric acid) transport in transfected HEK293/293T cells; format: cell-based; set-up: expressed in transfected cells
T1 sequence (Q9NSA0 1-550): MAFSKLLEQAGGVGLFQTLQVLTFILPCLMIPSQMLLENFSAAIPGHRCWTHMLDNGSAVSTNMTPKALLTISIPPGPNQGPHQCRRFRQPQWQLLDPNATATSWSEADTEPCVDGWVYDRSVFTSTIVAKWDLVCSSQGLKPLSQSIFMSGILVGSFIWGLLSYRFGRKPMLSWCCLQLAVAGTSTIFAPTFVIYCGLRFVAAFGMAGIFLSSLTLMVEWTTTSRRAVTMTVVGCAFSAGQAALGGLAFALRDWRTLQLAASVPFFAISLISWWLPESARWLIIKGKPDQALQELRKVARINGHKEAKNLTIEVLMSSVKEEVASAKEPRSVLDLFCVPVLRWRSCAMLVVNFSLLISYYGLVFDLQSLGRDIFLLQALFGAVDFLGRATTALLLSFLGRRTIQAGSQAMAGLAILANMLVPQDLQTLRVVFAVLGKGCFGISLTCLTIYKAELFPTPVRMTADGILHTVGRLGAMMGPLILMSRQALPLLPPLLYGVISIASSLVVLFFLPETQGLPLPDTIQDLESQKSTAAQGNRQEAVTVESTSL
Description: For cultured cells, HEK293 cells stably expressing the transporters were produced through transfection of DNA constructs carrying the transporters, antibiotic selection, and clonal selection of clones with high transporter activity. Alternatively, cells transiently expressing the transporters were produced by reverse transfection of HEK293T cells. Transfectants were plated at high density onto poly-L-lysine coated multiwell plates and assayed 1-2 days later.

[2] = biological target: T1, OAT4; details: Lesinurad 25, 50, 100 μM outside; 22, 44, 444 μM inside oocytes

O=C(O)CSc1nnc(Br)n1-c1ccc(C2CC2)c2ccccc12 [Lesinurad, 2-(5-bromo-4-(4-cyclopropylnaphthalen-l-yl)-4H-1,2,4-triazol-3-ylthio)acetic acid]
IC50 [1]: 5 µM | percent inhibition of UA transport, OAT4 ([1]; 293T cells expressing URAT1 and/or OAT4, varying concentrations): inhibits URAT1 and OAT4 with similar potency | percent uptake of 3H-Estrone sulfate, side of inhibition [2]: inhibits OAT4 primarily from the extracellular (apical) side
